This note sets out measurements from ChEMBL document CHEMBL3822453 (J Med Chem, 2016).

Active and inactive are the calls of the source. The calls are words filed in the database; no cut-off is given here.

The target of the experiment is T1, DNA repair protein RAD51 homolog 1 (Homo sapiens) (UniProt Q06609).
T1 sequence (whole entry): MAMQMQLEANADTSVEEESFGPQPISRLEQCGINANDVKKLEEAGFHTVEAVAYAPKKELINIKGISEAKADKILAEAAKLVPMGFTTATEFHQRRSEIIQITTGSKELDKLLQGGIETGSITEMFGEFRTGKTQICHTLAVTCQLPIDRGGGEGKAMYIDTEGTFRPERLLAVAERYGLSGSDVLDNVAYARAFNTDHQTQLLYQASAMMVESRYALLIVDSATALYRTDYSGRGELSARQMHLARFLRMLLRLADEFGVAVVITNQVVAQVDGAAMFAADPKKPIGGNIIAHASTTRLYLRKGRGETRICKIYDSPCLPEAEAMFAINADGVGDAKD
The experiment is described as follows: Inhibition of RAD51-mediated homologous recombination in human HEK293-DR-GFP cells transfected with pCBASce expressing I-Sce-I after 24 hrs following transfection by 7-aminoactinomycin D staining based flow cytometry. Type of experiment: cell-based. (In flow cytometry, cells or beads pass a laser one at a time.)

Take `Nc1ccc(-c2nc3cc(O)ccc3n3cccc23)cc1`: the inhibition entry is “Active”.
